The structures appear in SMILES notation. The entries are a selection whose mix differs from that of the whole data set. Some structures show a salt or complex split into parts, the way the source records it. Calls of active or inactive are those of the source.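 The calls were made as follows: active = activation of at least 50%, plus an integration ratio under a set limit after plate pattern correction; inactive = the rest.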

For this assay, the system named is CRF-binding protein / CRF receptor 2 complex (human). Nature of the assay: activators of CRF-R2 with CRF-BP – cell-based, HEK293, calcium dye fluorescence, uHTS, primary screen (AID 588473).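 Also: plate controls were neutral control wells without compound for no effect and CRF at EC100 for full effect.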 As to conditions: calcium dye fluorescence (FLIPR), at 13.2 µM, active compounds read high, percent of saturating CRF peptide response.
As to `CP(=O)(Nc1ccccc1F)Oc1ccccc1` (stereo not given), the activation was inactive: -0.83%. In the case of `CC(C)c1ccc(OP(C)(=O)Nc2ccc(SC(F)(F)F)cc2)cc1` (stereo not given) it was inactive: 5.67%; in that of `O=[N+]([O-])c1cc([N+](=O)[O-])c(Nc2ccc(Cl)cc2)c([N+](=O)[O-])c1`, active: 68.8%.

Turning to `COc1ccc2c(c1O)-c1c(O)c(OC)cc3c1[C@H](C2)[N+](C)(C)CC3.O=[N+]([O-])c1cc([N+](=O)[O-])c([O-])c([N+](=O)[O-])c1[O-]`, the activation is inactive: -0.72%.

In the case of `O=C(OC1CN2CCC1CC2)c1ccc([N+](=O)[O-])cc1` (stereo not given), the activation was inactive: -1.63%. On to `O=C(OCCN1CCN(CCOCc2ccccc2)CC1)C(O)(c1ccccc1)c1ccccc1`, for which the activation is inactive: -1.48%.

For the molecule `CCOC(=O)c1ccc(NP(C)(=O)Oc2ccc(F)cc2)cc1` (stereo not given), the activation was inactive: -0.44%.

In the case of `COc1ccc(OP(C)(=O)Nc2ccc(SC(F)(F)F)cc2)cc1` (stereo not given), the activation was inactive: 1.37%. With `CP(=O)(Nc1ccccc1)Oc1ccc(F)cc1` (stereo not given), the activation is inactive: 2.73%. As for `CCCCCOc1ccc(NP(C)(=O)Oc2ccc(Cl)cc2Cl)cc1` (stereo not given), the activation is inactive: -0.87%. Regarding `O=[N+]([O-])c1cc([N+](=O)[O-])c(OC2CCCCC2O)c([N+](=O)[O-])c1` (stereo not given), the activation is inactive: 0.37%. Take `Cc1c([N+](=O)[O-])cc([N+](=O)[O-])c(Br)c1[N+](=O)[O-]`: the activation is inactive: -1.46%. `CCN(CC)CCCOC(=O)C(O)(c1ccccc1)C1CCCCC1` (stereo not given): the activation is inactive: -1.06%. As to `CN(C)CCOC(=O)C(O)(c1ccccc1)C1CCCCC1` (stereo not given), the activation was inactive: -2.15%. Regarding `COc1ccc(NP(C)(=O)Oc2ccccc2OC)cc1` (stereo not given), the activation was active: 60.9%. In the case of `COc1ccc(OP(C)(=O)Nc2cccc(Br)c2)cc1` (stereo not given), the activation was inactive: -0.36%. With `Cc1c(C(c2ccc3c(c2)OCO3)c2c(C)n(C)n(-c3ccccc3)c2=O)c(=O)n(-c2ccccc2)n1C.O=[N+]([O-])c1cc([N+](=O)[O-])c(O)c([N+](=O)[O-])c1` the figure was inactive: 0.09%; with `O=[N+]([O-])c1ccc(OP2(=O)COCCO2)cc1` (stereo not given), inactive: -0.18%. In the case of `Cc1cc(-c2cccc3ccccc23)c(C)cn1.O=[N+]([O-])c1cc([N+](=O)[O-])c(O)c([N+](=O)[O-])c1` it was inactive: -1.8%. Regarding `O=[N+]([O-])c1cc([N+](=O)[O-])c(NCC2CCS(=O)(=O)C2)c([N+](=O)[O-])c1` (stereo not given), the activation was inactive: 0.14%. In the case of `CCOP(C)(=S)SCC(=O)NC(C)(CC)C(=O)O` (stereo not given) it was inactive: 5.09%; in that of `CP(=O)(Nc1ccc(SC(F)(F)F)cc1)Oc1ccc(F)cc1` (stereo not given), inactive: 1.54%; in that of `Cc1ccccc1NP(C)(=O)Nc1ccccc1C`, inactive: 0.5%. On to `CP(=O)(Nc1ccc2c(c1)OCCO2)Oc1ccccc1` (stereo not given), for which the activation was inactive: -1.35%. Turning to `O=C(OCCCN1CCCC1)C(O)(c1ccccc1)C1CCCCC1` (stereo not given), the activation is inactive: -0.93%. Turning to `COc1ccccc1OP(C)(=O)Nc1c(C)n(C)n(-c2ccccc2)c1=O` (stereo not given), the activation was inactive: -2.93%. As for `CCc1ccc(OP(C)(=O)Nc2cccnc2)cc1` (stereo not given), the activation is inactive: -1.16%.

Consider `CP(=O)(Oc1ccccc1)N1CCOC1=O` (stereo not given), for which the activation is inactive: -0.22%. In the case of `COc1ccc(OP(C)(=O)Nc2ccc(Br)cc2)cc1` (stereo not given) it was inactive: -1.91%. As for `CCN(CC)CC(O)COC(=O)C(O)(c1ccccc1)C1CCCCC1` (stereo not given), the activation is inactive: 1.11%. For the molecule `CN(C)C(=O)c1c([N+](=O)[O-])cc([N+](=O)[O-])cc1[N+](=O)[O-]`, the activation is inactive: 2.53%. With `COc1ccccc1OP(C)(=O)Nc1ccccc1Br` (stereo not given) the figure was inactive: 0.55%.

`CC(C)(C)c1ccc(OP(C)(=O)O)cc1`: the activation was inactive: -1.02%. With `CP(=O)(Nc1ccc(Cl)cc1)Oc1ccc(F)cc1` (stereo not given), the activation was inactive: 2.89%. As to `CCOC(=O)c1ccc(NP(C)(=O)Oc2ccc(Cl)cc2)cc1` (stereo not given), the activation is inactive: 0.31%.

For the molecule `CP(=O)(OC12CC3CC(CC(C3)C1)C2)OC12CC3CC(CC(C3)C1)C2`, the activation is inactive: 3.66%. For `Nc1ccc2c(ccc3cccnc32)n1.O=[N+]([O-])c1cc([N+](=O)[O-])c(O)c([N+](=O)[O-])c1`, the activation was inactive: -0.57%. For `COc1ccccc1OP(C)(=O)Nc1ccc(C)c(C)c1` (stereo not given), the activation was inactive: -0.33%. Regarding `COc1ccc(OP(C)(=O)Nc2ccccc2Br)cc1` (stereo not given), the activation is inactive: -2.03%.

Regarding `Cc1cc(C)cc(OP(C)(=O)Nc2cccc(C(F)(F)F)c2)c1` (stereo not given), the activation is inactive: -2.59%. With `O=C1C(O)=C([N+](=O)[O-])C(=O)C(O)=C1[N+](=O)[O-]`, the activation is inactive: -1.45%. For `CCCCCCCCCCCCCCCC1C[N+](C)(C)CCOP(C)(=O)O1` (stereo not given), the activation is inactive: 47.3%.

For `CP(=O)(Nc1ccc(Cl)cc1Cl)Oc1ccccc1` (stereo not given), the activation was inactive: -0.11%. With `CP(=O)(OCCOc1ccccc1)OCCOc1ccccc1`, the activation is inactive: 1.87%.

On to `COc1ccc(OP(C)(=O)Nc2ccccn2)cc1` (stereo not given), for which the activation was inactive: 3.15%.

Take `CN(C)CCOC(=O)C(O)(c1ccccc1)C1CCCC1` (stereo not given): the activation is inactive: -3%. Turning to `COc1ccccc1OP(C)(=O)Nc1ccc(Br)cc1` (stereo not given), the activation was inactive: -1.81%. On to `COc1ccccc1OP(C)(=O)Nc1ccc(C)cc1C` (stereo not given), for which the activation was inactive: -0.37%. With `CP(=O)(Nc1ccccn1)Oc1ccccc1` (stereo not given), the activation was inactive: -2.71%. With `CCc1ccc(OP(C)(=O)O)cc1`, the activation was inactive: 0.21%. With `Cc1c(NP(C)(=O)Oc2ccc(C(C)C)cc2)c(=O)n(-c2ccccc2)n1C` (stereo not given) the figure was inactive: 1.28%; with `O=[N+]([O-])c1cc([N+](=O)[O-])c(Nc2ccccn2)c([N+](=O)[O-])c1`, inactive: 6.09%. With `CCN(CC)CCCOC(=O)C(O)(c1ccccc1)c1ccccc1`, the activation was inactive: 1.24%. With `O=[N+]([O-])c1ccc2c(c1)C=Nc1ccccc1O2`, the activation was inactive: -2.25%. In the case of `Cc1cccc(C)c1OP(C)(N)=O` (stereo not given) it was inactive: 0.01%; in that of `CC(C)(C)c1ccc(OP(C)(=O)Nc2ccc(SC(F)(F)F)cc2)cc1` (stereo not given), inactive: 4.88%; in that of `O=[N+]([O-])c1cc([N+](=O)[O-])c(Nc2cccnc2)c([N+](=O)[O-])c1`, active: 66.2%. `Cc1cc(C)cc(OP(C)(N)=O)c1` (stereo not given): the activation was inactive: 4.55%. With `COc1ccc(OP(C)(=O)Nc2cccc(F)c2)cc1` (stereo not given) the figure was inactive: -6.29%; with `COc1ccccc1OP(C)(=O)Nc1cc(Cl)ccc1C` (stereo not given), inactive: -1.26%; with `Cc1ccc(NP(C)(=O)Oc2ccccc2)c(C)c1` (stereo not given), inactive: -0.07%. For `COc1ccccc1OP(C)(=O)Nc1ccc(C)cc1` (stereo not given), the activation was inactive: -2.27%.

In the case of `CCOC(=O)c1ccc(NP(C)(=O)Oc2ccccc2)cc1` (stereo not given), the activation was inactive: -1.75%. For `CP(=O)(Nc1ccccc1Br)Oc1ccccc1` (stereo not given), the activation was inactive: 1.35%. Regarding `COc1ccccc1OP(C)(=O)Nc1ccccc1` (stereo not given), the activation was inactive: 0.11%. In the case of `CP(=S)(Nn1cnnc1)Oc1ccccc1` (stereo not given) it was inactive: 5.18%; in that of `Cc1cc(C)cc(OP(C)(=O)Nc2ccc(SC(F)(F)F)cc2)c1` (stereo not given), inactive: 5.46%.

`CP(=O)(NC(=O)Nc1ccccc1)Oc1ccccc1` (stereo not given): the activation is inactive: -1.95%. Regarding `CCc1ccc(OP(C)(=O)N2CCN(c3ccc([N+](=O)[O-])cc3)CC2)cc1` (stereo not given), the activation is inactive: -0.54%. For `CP(=O)(Oc1ccccc1)OC(c1ccccc1)C(F)(F)F` (stereo not given), the activation is inactive: 0.54%. On to `Cc1ccc(Nc2c([N+](=O)[O-])cc([N+](=O)[O-])cc2[N+](=O)[O-])cc1`, for which the activation is inactive: 18%. With `Cc1cccc(C)c1OP(C)(=O)Nc1ccc(SC(F)(F)F)cc1` (stereo not given), the activation is inactive: -0.85%.

As to `CP(=O)(Nc1ccc(SC(F)(F)F)cc1)Oc1ccc(Cl)cc1` (stereo not given), the activation is inactive: 1.05%. In the case of `CP(=O)(Nc1ccccn1)Oc1ccc(Cl)cc1` (stereo not given) it was inactive: -0.97%; in that of `CCOC(=O)c1ccc(NP(C)(=O)Oc2ccc(OC)cc2)cc1` (stereo not given), inactive: -2.75%. With `O=[N+]([O-])c1cc([N+](=O)[O-])c(O)c([N+](=O)[O-])c1.c1ccc(Oc2ccncc2)cc1` the figure was inactive: -2.32%; with `CCOP(C)(=S)SCC(=O)NC(C)C(=O)O` (stereo not given), inactive: 3.31%.

As to `O=[N+]([O-])c1cc([N+](=O)[O-])c(-n2nnc3ccccc32)c([N+](=O)[O-])c1`, the activation is inactive: 1.14%.

As for `Cc1nc2ccc3ccccc3c2s1.O=[N+]([O-])c1cc([N+](=O)[O-])c(O)c([N+](=O)[O-])c1`, the activation was inactive: -0.2%. With `O=[N+]([O-])c1cc([N+](=O)[O-])c(-c2cnn(-c3ccccc3)c2)c([N+](=O)[O-])c1` the figure was inactive: -0.68%.

As to `CCOC(=O)C(CC)C1=NC(C)(C)Cc2ccccc21.O=[N+]([O-])c1cc([N+](=O)[O-])c(O)c([N+](=O)[O-])c1` (stereo not given), the activation is inactive: -1.21%.

Consider `CC1=C2N=C(C=C3N=C(C(C)=C4[N-][C@@](C)([C@@H]5N=C1[C@](C)(CCC(=O)NC[C@@H](C)OP(=O)([O-])O[C@H]1[C@@H](O)[C@@H](n6cnc7cc(C)c(C)cc76)O[C@@H]1CO)[C@H]5CC(N)=O)[C@@](C)(CC(N)=O)[C@@H]4CCC(N)=O)[C@@](C)(CC(N)=O)[C@@H]3CCC(N)=O)C(C)(C)[C@@H]2CCC(N)=O.[C-]#N.[Co+3]`, for which the activation was inactive: -1.27%. `O=[N+]([O-])c1cc([N+](=O)[O-])c(Nc2nnnn2CCO)c([N+](=O)[O-])c1`: the activation is inactive: -0.65%.

In the case of `CCCOc1ccc(NP(C)(=O)Oc2ccc(Cl)cc2)cc1` (stereo not given), the activation is inactive: 0.15%.

Regarding `CP(=O)(Nc1ccc(SC(F)(F)F)cc1)Oc1ccccc1` (stereo not given), the activation was inactive: -0.11%. `COc1ccccc1OP(C)(=O)Nc1c(C)cccc1C` (stereo not given): the activation is inactive: -0.01%.

As for `CN1CCCCC1COC(=O)C1(O)c2ccccc2CCc2ccccc21` (stereo not given), the activation is inactive: 10.8%. As for `O=C(O)c1cccc(Nc2c([N+](=O)[O-])cc([N+](=O)[O-])cc2[N+](=O)[O-])c1`, the activation was inactive: -0.76%.

`CC1=NCCc2c1[nH]c1ccccc21.O=[N+]([O-])c1cc([N+](=O)[O-])c(O)c([N+](=O)[O-])c1`: the activation is inactive: 7.44%.

In the case of `CCOC(=O)c1ccc(NP(C)(=O)Oc2cc(C)cc(C)c2)cc1` (stereo not given), the activation is inactive: -0.61%. For `Cc1cc(C)cc(OP(C)(=O)Nc2ccc(C)cc2C)c1` (stereo not given), the activation was inactive: -0.22%. With `COc1ccccc1OP(C)(=O)Nc1cccc(Br)c1` (stereo not given), the activation was active: 59.3%.

Consider `Cc1ccc(C)c(NP(C)(=O)Oc2ccccc2)c1` (stereo not given), for which the activation is inactive: -1.35%. For `Cc1cc(C)cc(OP(C)(=O)Nc2ccccn2)c1` (stereo not given), the activation is inactive: -0.33%. As for `CP(=O)(Nc1cccc(Br)c1)Oc1ccccc1` (stereo not given), the activation was inactive: 0.26%.

The values are drawn from PubChem BioAssay AID588473 (Sanford-Burnham Center for Chemical Genomics, 2011).
